Source: article PMC5876397, “An advanced human in vitro co-culture model for translocation studies across the placental barrier” (Scientific Reports, 2018)

Experiments:
[1] = system: BeWo b30 monolayer
[2] = system: HPEC-A2 monolayer
[3] = system: BeWo b30 / HPEC-A2 co-culture
[4] = system: BeWo cells; settings: cited from earlier work

FITC-dextran
Transport, basolateral amount of the initial dose (ID) [1]: 0.0%
Transport, basolateral amount of the initial dose (ID) [2]: 6.2%
Transport, basolateral amount of the initial dose (ID) [3]: 0.0%
Viability of BeWo cells [4]: did not affect the viability
